Measured affinities in a library of Ab-95 light chain variants

All variants were tested on one target, the spike HR2 peptide PDVDLGDISGINAS (SARS-CoV-2).

Each scFv is VH, the linker GGGGSGGGGSGGGGS, VL, as in the parent Ab-95, and differs from it in the CDRs of the light chain only.
VH: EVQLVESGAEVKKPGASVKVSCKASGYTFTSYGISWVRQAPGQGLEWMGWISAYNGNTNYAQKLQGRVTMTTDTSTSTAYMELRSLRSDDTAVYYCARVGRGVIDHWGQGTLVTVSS
VL: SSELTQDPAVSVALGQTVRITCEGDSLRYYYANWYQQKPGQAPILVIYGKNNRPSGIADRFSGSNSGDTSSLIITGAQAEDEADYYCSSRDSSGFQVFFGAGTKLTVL

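The starting antibody came from a phage panning campaign against this peptide. AAYL52 was designed without a model: most single CDR substitutions and a random sample of double and triple ones. In AlphaSeq, yeast of one mating type display the scFv and yeast of the other type display the target. Binding brings cells together so that they mate, and sequencing counts the barcode pairs among the diploids. A regression on co-assayed BCL2-family reference pairs converts the normalised counts of each replicate to an apparent Kd. The assay was run in three technical replicates.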

The parent's light chain CDRs are EGDSLRYYYAN, GKNNRPS, SSRDSSGFQVF; each variant's own CDRs replace them letter for letter. Affinities are written as log10 Kd with Kd in nM; a lower number is a better binder. The mean shown is taken over the replicates in which the pair was detected. "n.d." marks a missing value. The strain was present, yet no cells mated with the target were sequenced in that replicate, which points to weak or no binding. Parent in this assay: reference entry 2.31, copy in this library 2.25.

CDR-L1,CDR-L2,CDR-L3,"replicates, log10 nM","mean, log10 nM",signal with controls
EGDSLQYRYAN,GKNNRPS,SSRDGSGFQVF,2.38 / 2.21 / 1.89,2.16,3 of 9 (4.01)
EGDSLRYYYAN,GKANRPS,SSRDSSGPQMF,5.34 / n.d. / n.d.,5.34,0 of 9
EMDLLRYYYAN,GKNVRPS,SSRDSSGFQVF,4.18 / n.d. / 4.46,4.32,4 of 9 (4.36)
EGDSLGYYYAN,GKNMRPS,SSGDSSGFQVF,4.37 / n.d. / n.d.,4.37,1 of 9 (3.65)
EGDSLWYYYAN,GKNNRPS,SSPDSSGFTVF,n.d. / n.d. / 3.51,3.51,3 of 9 (3.77)
EGDSLRYYHAN,GKNNRQS,SSGDSSGFQVF,2.94 / 2.48 / 2.50,2.64,3 of 9 (3.94)
EGDSLFYYYRN,GKNNRPS,SSRDSSGAQVF,2.96 / 2.70 / 2.87,2.84,4 of 9 (3.85)
EGDSLREYYAN,GKNNRPS,SSRISSGFFVF,3.61 / n.d. / n.d.,3.61,2 of 9 (3.54)
EGDSLRYYYAN,GKNTRMS,SSRDSSGHQVF,2.82 / 2.71 / 2.71,2.75,3 of 9 (4.20)
EGDSLRYYYAN,GKNNRPS,WSRDHHGFQVF,3.15 / n.d. / n.d.,3.15,3 of 9 (3.53)
EMDSLGYYYAN,GKNNRPS,SSRHSSGFQVF,4.03 / n.d. / n.d.,4.03,6 of 9 (3.83)
EGDSLRYYYAN,GKNNRPS,SSRDSHGFSVF,2.43 / 2.51 / 1.81,2.25,4 of 9 (4.01)
EGDSLRYYYAN,GKNPRES,SSRDSSIFQVF,n.d. / n.d. / n.d.,n.d.,1 of 9 (3.47)
EGDSLRYYPAN,GKNNRPS,SSRDSMGFQVF,2.02 / 1.68 / 1.75,1.82,2 of 9 (4.09)
EGDSLCNYYAN,GKNNCPS,SSRDSSGFQVF,n.d. / n.d. / n.d.,n.d.,3 of 9 (4.13)
EGDHLRYAYAN,QKNNRPS,SSRDSSGFQVF,1.61 / 1.59 / 1.36,1.52,5 of 9 (4.35)
EGDSLRYYNAN,SKNNRPS,SSRDSSGSQVF,1.62 / 1.81 / 1.54,1.66,1 of 9 (3.10)
EGASLRYYYAN,GKNNRPS,TSRDKSGFQVF,3.34 / 3.41 / 2.72,3.16,2 of 9 (3.87)
EGDSLRYDYMN,GKNNRPS,SSRDSDGFQVF,2.96 / 2.92 / 2.92,2.93,3 of 9 (3.87)
EGDSLRYYYAN,GKNNRTS,SSLDTSGFQVF,n.d. / 4.35 / n.d.,4.35,2 of 9 (3.75)
EGDSLRPYYMK,GKNNRPS,SSRDSSGFQVF,3.79 / 3.66 / n.d.,3.72,4 of 9 (4.38)
EGDSLRYYYAN,GKNNRVS,SSRDSFGFQDF,2.88 / 3.83 / n.d.,3.35,3 of 9 (4.04)
ENDKLRYYYAN,GKNNRPS,SSRDSMGFQVF,3.11 / n.d. / n.d.,3.11,1 of 9 (3.63)
EKDSLRYYYAN,GKNDRPS,SSRDSSGFQVF,2.80 / 3.07 / 2.87,2.91,1 of 9 (5.28)
EGDSLRYYYAN,WKNNQPS,RSRDSSGFQVF,4.78 / 4.09 / n.d.,4.43,3 of 9 (3.84)
EGDSWRYYYAN,GKNNRPS,SSVISSGFQVF,n.d. / n.d. / n.d.,n.d.,1 of 9 (4.95)
EGISLRYYYAN,GKNNRDS,SSRSSSGFQVF,2.52 / 2.29 / 2.16,2.32,5 of 9 (4.06)
EGDSLRYYHAN,GANNRPK,SSRDSSGFQVF,2.64 / 2.00 / 1.47,2.04,0 of 9
EGDSLPYYYAK,GDNNRPS,SSRDSSGFQVF,3.02 / 2.75 / 2.49,2.75,3 of 9 (3.80)
EGDSLRYYYAN,GLDNRPS,SSRFSSGFQVF,3.47 / 3.48 / 2.81,3.25,6 of 9 (4.10)
EGDSLRYYYAH,LKNHRPS,SSRDSSGFQVF,3.50 / n.d. / n.d.,3.50,0 of 9
IGDSLRPYYAN,GKNNRPS,SSRDSSGFPVF,2.12 / 2.16 / 2.15,2.14,2 of 9 (3.88)
EGDSLRYYYCP,GKNNLPS,SSRDSSGFQVF,n.d. / n.d. / n.d.,n.d.,1 of 9 (4.54)
EGDSHRYYYAN,GKNNRPP,SSRDSSGFQVF,4.62 / 4.06 / n.d.,4.34,1 of 9 (3.31)
EGDSLIYYIAN,GKNNRPS,SSRDSSEFQVF,n.d. / 3.54 / n.d.,3.54,4 of 9 (4.02)
EGDSLRYYYTN,GKNNQPS,SSRDSSGFQCF,4.88 / n.d. / n.d.,4.88,0 of 9
EGDSLRFYYAN,GKNIRPS,SQRDSSGFQVF,3.29 / 3.15 / n.d.,3.22,1 of 9 (3.13)
ENDSLTYMYAN,GKNNRPS,SSRDSSGFQVF,n.d. / 4.90 / 3.66,4.28,7 of 9 (4.60)
EGDSLRYEYAN,GKGNRSS,SSRDSSGFQVF,1.61 / 1.54 / 1.18,1.44,8 of 9 (4.43)
EGDSLRYYYCN,GKNNRPS,SSRDCSLFQVF,3.58 / 3.27 / 2.73,3.19,2 of 9 (3.70)
EGGSLRYYYWN,GANNRPS,SSRDSSGFQVF,3.93 / n.d. / 4.28,4.11,2 of 9 (4.13)
EGDSLREYYAN,GKNNRGS,SSRDSLGFQVF,3.07 / 3.00 / 3.99,3.35,3 of 9 (3.23)
EGDSLRYYYRQ,GKNNRPS,SSRISSGFQVF,4.36 / n.d. / n.d.,4.36,2 of 9 (4.70)

The opening 6 entries, copied out:

CDR-L1,CDR-L2,CDR-L3,"replicates, log10 nM","mean, log10 nM",signal with controls
EGDSLQYRYAN,GKNNRPS,SSRDGSGFQVF,2.38 / 2.21 / 1.89,2.16,3 of 9 (4.01)
EGDSLRYYYAN,GKANRPS,SSRDSSGPQMF,5.34 / n.d. / n.d.,5.34,0 of 9
EMDLLRYYYAN,GKNVRPS,SSRDSSGFQVF,4.18 / n.d. / 4.46,4.32,4 of 9 (4.36)
EGDSLGYYYAN,GKNMRPS,SSGDSSGFQVF,4.37 / n.d. / n.d.,4.37,1 of 9 (3.65)
EGDSLWYYYAN,GKNNRPS,SSPDSSGFTVF,n.d. / n.d. / 3.51,3.51,3 of 9 (3.77)
EGDSLRYYHAN,GKNNRQS,SSGDSSGFQVF,2.94 / 2.48 / 2.50,2.64,3 of 9 (3.94)

Background: pairings of library AAYL52 with three empty control strains gave a value in 28% of cases (median 3.91, 5th percentile 2.90). Values in that range, when seen in few replicates, are hard to tell from nonspecific mating. Also given: how often the same scFv was detected with the empty control strains, with their mean in brackets.

From the AlphaSeq antibody data of Engelhart et al. 2022 (doi:10.1038/s41597-022-01779-4), copy in the FLAb collection.